Structures are written as SMILES. A value given as a limit tells only on which side of the number the result lay.

The test system of the experiment is TC-71 (Ewing's sarcoma) cells. Kind of experiment: Cell proliferation assay, TC-71 (Alamar Blue). The experiment is classed as cell-based. Conditions: TC-71 cells, 72 h, read-out: TC71 EC50 range. The protocol: Cell Proliferation Assays
Published scientific data has described that interference with the Insulin-like Growth Factor-1 Receptor (IGF-1R) signaling pathway reduces the proliferation of TC-71 cells. Therefore TC-71 cells served as a positive control cell line for monitoring the activity of compounds against IGF-1R-mediated cell proliferation.
2000 TC-71 cells or 1000 HCT 116 cells were seeded per well in 180 μL IMDM+10% foetal calf serum (FCS)+penicillin/streptomycin into 96-well microtitre plates. The plates were placed in a cell culture incubator (37° C. in a humidified atmosphere of 95% […]/5 CO2) overnight. The following day, serial dilutions of compounds, prepared in duplicates, were transferred onto the cell layers (controls without compound). The cells were cultivated for a further 72 h in the cell culture incubator. 20 μL of Alamar Blue™ (Serotec Ltd, Düsseldorf, Germany) was added to each well and the plates incubated for 7 h in the cell culture incubator.
Turning to `CCn1ccc(Nc2ncc3c(n2)-c2c(nn(C)c2-c2ccc(-c4cnn(C(C)C)c4)cc2)CC3)n1` [I-073], the EC50 was below 0.01 µM. As to `COCCCn1cc(-c2ccc(-c3c4c(nn3C)CCc3cnc(Nc5ccn(CCN(C)C)n5)nc3-4)cc2)cn1` [I-083], the EC50 was below 0.01 µM. Consider `COc1cc(C(=O)NCC2CCN(C)CC2)ccc1Nc1ncc2c(n1)-c1c(nn(C)c1-c1ccc(-c3cnn(C)c3)cc1)CC2` [I-159], for which the EC50 was below 0.01 µM. As to `Cc1cc(Nc2ncc3c(n2)-c2c(nn(C)c2-c2ccc(-c4cnn(C)c4)cc2)CC3)nn1C` [I-011], the EC50 is below 0.01 µM.

Turning to `COc1cc(C(=O)O)ccc1Nc1ncc2c(n1)-c1c(nn(C)c1-c1ccc(-c3cnn(CC(C)C)c3)cc1)CC2` [I-127], the EC50 is 0.01 to 0.1 µM. Then `CNC(=O)c1ccc(Nc2ncc3c(n2)-c2c(nn(C)c2Cc2cccc(-c4cnn(C)c4)c2)CC3)c(OC)c1` [I-148], with below 0.01 µM; and `COc1cc(C(=O)NC2CCN(C)CC2)ccc1Nc1ncc2c(n1)-c1c(nn(C)c1Cc1cccc(-c3cnn(C)c3)c1)CC2` [I-145], with below 0.01 µM.

Regarding `CCn1ccc(Nc2ncc3c(n2)-c2c(nn(C)c2-c2ccc(-c4cnn(CCO)c4)cc2)CC3)n1` [I-081], the EC50 is below 0.01 µM. Take `Cn1ccc(Nc2ncc3c(n2)-c2c(nn(C)c2Cc2cccc(-c4cnn(CCN5CCOCC5)c4)c2)CC3)n1` [I-108]: the EC50 is below 0.01 µM.

As for `COCCn1ccc(Nc2ncc3c(n2)-c2c(nn(C)c2Cc2cccc(-c4cnn(C)c4)c2)CC3)n1` [I-016], the EC50 is below 0.01 µM. As to `COCCN1CCC(NC(=O)c2ccc(Nc3ncc4c(n3)-c3c(nn(C)c3-c3ccc(-c5cnn(C)c5)cc3)CC4)c(OC)c2)CC1` [I-135], the EC50 was below 0.01 µM. For `COc1cc(C(=O)NCCCN(C)C)ccc1Nc1ncc2c(n1)-c1c(nn(C)c1Cc1cccc(-c3cnn(C)c3)c1)CC2` [I-149] the value was below 0.01 µM; for `CNC(=O)c1ccc(Nc2ncc3c(n2)-c2c(nn(C)c2-c2ccc(-c4cnn(C)c4)cc2)CC3)c(OC)c1` [I-130], below 0.01 µM; for `CCCn1cc(-c2ccc(-c3c4c(nn3C)CCc3cnc(Nc5ccn(CCOC)n5)nc3-4)cc2)cn1` [I-091], below 0.01 µM. Consider `CCn1ccc(Nc2ncc3c(n2)-c2c(nn(C)c2-c2ccc(-c4cnn(CCN5CCN(C)CC5)c4)cc2)CC3)n1` [I-113], for which the EC50 is below 0.01 µM. Regarding `CCn1cc(-c2ccc(-c3c4c(nn3C)CCc3cnc(Nc5ccc(C(=O)O)cc5OC)nc3-4)cc2)cn1` [I-124], the EC50 was below 0.01 µM. Consider `COc1cc(C(=O)O)ccc1Nc1ncc2c(n1)-c1c(nn(C)c1-c1ccc(-c3cnn(C(C)C)c3)cc1)CC2` [I-125], for which the EC50 was below 0.01 µM.

As for `COc1cc(C(=O)NCCCN(C)C)ccc1Nc1ncc2c(n1)-c1c(nn(C)c1-c1ccc(-c3cnn(C)c3)cc1)CC2` [I-136], the EC50 is below 0.01 µM. In the case of `CCn1cc(-c2ccc(-c3c4c(nn3C)CCc3cnc(Nc5ccn(CC)n5)nc3-4)cc2)cn1` [I-072], the EC50 was below 0.01 µM. For `COCCn1ccc(Nc2ncc3c(n2)-c2c(nn(C)c2-c2ccc(-c4cnn(C)c4)nc2)CC3)n1` [I-182] the value was 0.01 to 0.1 µM; for `COc1cc(C(=O)NCCN2CCOCC2)ccc1Nc1ncc2c(n1)-c1c(nn(C)c1-c1ccc(-c3cnn(C)c3)cc1)CC2` [I-153], below 0.01 µM. Then `CCCn1cc(-c2cccc(Cc3c4c(nn3C)CCc3cnc(Nc5ccn(C)n5)nc3-4)c2)cn1` [I-105], with below 0.01 µM. `CN(C)CCNC(=O)Cn1ccc(Nc2ncc3c(n2)-c2c(nn(C)c2Cc2cccc(-c4cnn(C)c4)c2)CC3)n1` [I-040]: the EC50 was in the range of 0.01 to 0.1 µM. Then `COCCn1ccc(Nc2ncc3c(n2)-c2c(nn(C)c2-c2ccc(-c4cnn(CCN5CCO[C@@H](C)C5)c4)cc2)CC3)n1` [I-190], with below 0.01 µM.

Take `CN1CCN(CCn2ccc(Nc3ncc4c(n3)-c3c(nn(C)c3-c3ccc(-c5cnn(C)c5)cc3)CC4)n2)CC1` [I-031]: the EC50 was below 0.01 µM.

As to `Cn1cc(-c2ccc(-c3c4c(nn3C)CCc3cnc(Nc5ccn(CCO)n5)nc3-4)cc2)cn1` [I-003], the EC50 is below 0.01 µM.

With `COCCn1ccc(Nc2ncc3c(n2)-c2c(nn(C)c2-c2ccc(-c4cnn(CCN5CCOCC5)c4)cc2)CC3)n1` [I-094], the EC50 was below 0.01 µM.

As for `Cn1cc(-c2cccc(Cc3c4c(nn3C)CCc3cnc(Nc5ccn(CC(=O)N6CCOCC6)n5)nc3-4)c2)cn1` [I-041], the EC50 lay in the range of 0.01 to 0.1 µM. For the compound `CC1Cc2nn(C)c(-c3ccc(-c4cnn(C)c4)cc3)c2-c2nc(Nc3ccn(C)n3)ncc21` (racemic) [I-100], the EC50 is below 0.01 µM.

Regarding `COCCN(C)C(=O)c1ccc(Nc2ncc3c(n2)-c2c(nn(C)c2-c2ccc(-c4cnn(C)c4)cc2)CC3)c(OC)c1` [I-165], the EC50 was below 0.01 µM. Regarding `Cn1cc(Nc2ncc3c(n2)-c2c(nn(C)c2Cc2cccc(-c4cnn(C)c4)c2)CC3)cn1` [I-018], the EC50 is 0.01 to 0.1 µM. Consider `COc1cc(C(=O)O)ccc1Nc1ncc2c(n1)-c1c(nn(C)c1-c1ccc(-c3cnn(C)c3)cc1)CC2` [I-121], for which the EC50 is below 0.01 µM. Turning to `CN1CCN(CCn2ccc(Nc3ncc4c(n3)-c3c(nn(C)c3Cc3cccc(-c5cnn(C)c5)c3)CC4)n2)CC1` [I-034], the EC50 was below 0.01 µM. Take `CN(C)CCn1cc(Nc2ncc3c(n2)-c2c(nn(C)c2Cc2cccc(-c4cnn(C)c4)c2)CC3)cn1` [I-017]: the EC50 is below 0.01 µM. Then `Cn1cc(-c2ccc(-c3c4c(nn3C)CCc3cnc(Nc5ccn(C)n5)nc3-4)cn2)cn1` [I-179], with 0.01 to 0.1 µM. On to `CN(C)CCn1ccc(Nc2ncc3c(n2)-c2c(nn(C)c2-c2ccc(-c4cnn(C)c4)nc2)CC3)n1` [I-181], for which the EC50 lay in the range of 0.01 to 0.1 µM.

For `CN(C)C(=O)Cn1ccc(Nc2ncc3c(n2)-c2c(nn(C)c2-c2ccc(-c4cnn(CCO)c4)cc2)CC3)n1` [I-098], the EC50 was below 0.01 µM. For `COc1cc(C(=O)NCCN(C)C)ccc1Nc1ncc2c(n1)-c1c(nn(C)c1Cc1cccc(-c3cnn(C)c3)c1)CC2` [I-146] the value was below 0.01 µM; for `CN(C)C(=O)Cn1ccc(Nc2ncc3c(n2)-c2c(nn(C)c2-c2ccc(-c4cnn(C)c4)cc2)CC3)n1` [I-009], below 0.01 µM.

Turning to `COc1cc(N2CCN(C)CC2)ccc1Nc1ncc2c(n1)-c1c(nn(C)c1-c1ccc(-c3cnn(C)c3)cc1)CC2` [I-169], the EC50 was below 0.01 µM. Take `CN(C)CCn1ccc(Nc2ncc3c(n2)-c2c(nn(C)c2Cc2cccc(-c4cnn(C)c4)c2)CC3)n1` [I-015]: the EC50 was below 0.01 µM. As for `CN(C)C(=O)Cn1cc(Nc2ncc3c(n2)-c2c(nn(C)c2-c2ccc(-c4cnn(C)c4)cc2)CC3)cn1` [I-005], the EC50 was below 0.01 µM. Then `CCn1cc(-c2ccc(-c3c4c(nn3C)CC(C)c3cnc(Nc5ccn(C)n5)nc3-4)cc2)cn1` (racemic) [I-101], with below 0.01 µM; and `COCCn1cc(-c2ccc(-c3c4c(nn3C)CCc3cnc(Nc5ccn(CCN(C)C)n5)nc3-4)cc2)cn1` [I-059], with below 0.01 µM; and `CCn1ccc(Nc2ncc3c(n2)-c2c(nn(C)c2-c2ccc(-c4cnn(CCNCCOC)c4)cc2)CC3)n1` [I-115], with below 0.01 µM.

Take `COCCn1cc(-c2ccc(-c3c4c(nn3C)CCc3cnc(Nc5ccn(CCOC)n5)nc3-4)cc2)cn1` [I-092]: the EC50 was below 0.01 µM. For the compound `CCn1cc(-c2ccc(-c3c4c(nn3C)CCc3cnc(Nc5ccn(CCN(C)C)n5)nc3-4)cc2)cn1` [I-058], the EC50 was below 0.01 µM.

In the case of `Cn1cc(-c2cccc(Cc3c4c(nn3C)CCc3cnc(Nc5ccn(CCN6CCOCC6)n5)nc3-4)c2)cn1` [I-032], the EC50 is below 0.01 µM.

As a reminder, the EC50 is the concentration giving half of the maximal effect.
